The target of one assay is SIRT2 (Homo sapiens, UniProt Q8IXJ6). The experiment in a line: Fluorescence polarization assay, SIRT2 deacetylation of alpha-tubulin-based peptide substrate. The note with it: Sirt2, fluorescent polarization, present invention. (In general: In fluorescence polarisation assays a small probe gives low polarisation when free and higher when bound to something large.)
Another assay has as its target SIRT3 (Homo sapiens, UniProt Q9NTG7). The experiment in a line: Fluorescence polarization assay, SIRT3 deacetylation of Histone H4-based peptide substrate. It counts as biochemical. The following applies: read-out: NAD Km; Km of NAD with the named peptide substrate; Sirt3, fluorescent polarization, present invention. The text has this: A fluorescence polarization assay was used to identify modulators of SIRT3 activity. The same assay may be used to identify modulators of any sirtuin protein. The assay utilizes a peptide substrate based on a fragment of Histone H4, a known sirtuin deacetylation target. The substrate contains a peptide having 14 amino acid residues as follows: Biotin-GASSHSK(Ac)VLK(MR121) (SEQ ID NO: 23) wherein K(Ac) is an acetylated lysine residue. The peptide is labeled with the fluorophore MR121 (excitation 635 nm/emission 680 nm) at the C-terminus and biotin at the N-terminus.
The peptide substrate is exposed to a sirtuin protein in the presence of NAD^+ to allow deacetylation of the substrate and render it sensitive to cleavage by trypsin. […] The fluorescence polarization signal observed for the full length peptide substrate bound to streptavidin is higher than the fluorescence polarization signal observed for the released MR121 C-terminal fragment. Therefore, the fluorescence polarization obtained is inversely proportional to the level of deacetylation (e.g., the signal is inversely proportional to the activity of the sirtuin protein). Results are read on a microplate fluorescence polarization reader (Molecular Devices Spectramax MD) with appropriate excitation and emission filters. […]

Chains of the proteins cited; added tags and fusions are not shown. Lines headed by an entry give the natural chain unless they say otherwise; changes in a name come on top.
UniProt Q8IXJ6: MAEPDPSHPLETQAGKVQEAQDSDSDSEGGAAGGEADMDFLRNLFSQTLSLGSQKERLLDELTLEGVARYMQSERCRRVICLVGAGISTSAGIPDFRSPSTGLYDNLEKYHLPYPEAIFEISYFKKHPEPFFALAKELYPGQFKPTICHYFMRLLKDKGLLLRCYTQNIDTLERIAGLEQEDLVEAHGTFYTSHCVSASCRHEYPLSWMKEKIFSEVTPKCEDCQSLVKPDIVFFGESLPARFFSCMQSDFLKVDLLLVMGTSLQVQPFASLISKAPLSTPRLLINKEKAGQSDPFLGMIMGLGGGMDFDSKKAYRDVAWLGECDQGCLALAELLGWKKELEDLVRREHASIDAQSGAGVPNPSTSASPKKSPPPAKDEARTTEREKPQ
UniProt Q9NTG7: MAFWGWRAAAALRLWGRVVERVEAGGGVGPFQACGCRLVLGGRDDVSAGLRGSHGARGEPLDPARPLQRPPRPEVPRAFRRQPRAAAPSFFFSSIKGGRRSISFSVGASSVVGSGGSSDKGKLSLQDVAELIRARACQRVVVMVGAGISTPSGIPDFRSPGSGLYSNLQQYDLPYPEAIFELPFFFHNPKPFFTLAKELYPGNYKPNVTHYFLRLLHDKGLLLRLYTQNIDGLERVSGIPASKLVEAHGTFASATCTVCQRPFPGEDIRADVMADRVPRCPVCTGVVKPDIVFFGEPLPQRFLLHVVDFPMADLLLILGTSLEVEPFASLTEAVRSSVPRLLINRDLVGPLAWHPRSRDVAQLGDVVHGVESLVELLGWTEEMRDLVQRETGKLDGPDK

Read-outs that look alike come from different tables or passages of the source.

Our source for the Km values is US20080293081A1, “Fluorescence Polarization Assays for Acetyltransferase/Deacetylase Activity” (Sirtris Pharmaceuticals, Inc., priority 2005, published 2008).

Consider Biotin-Nle-PSD-K(Ac)-TIGG-K(MR121)-NH2, for which the Km on SIRT2 (read-out: NAD Km, Km of NAD with the named peptide substrate) stood at 37 µM; at SIRT2 (read-out: Peptide Km), 50 µM.

Take Biotin-GASSHS-K(Ac)-VL-K(MR121)-NH2: on SIRT3, the Km stood at 50 µM.

Usually Km stands for the substrate concentration at which the rate is half of its maximum.
